Source: patent US20040176393A1, “Statin-MMP inhibitor combinations” (priority 1998, published 2004)
pIC50: −log10 of the molar value.

Experiments:
[1] = target: T1, MMP-2 (Gelatinase A) (Homo sapiens, UniProt P08253); test: thiopeptolide substrate hydrolysis assay, MMP-2; format: biochemical; conditions: inhibition of hydrolytic activity of the enzyme, read-out: IC50 MMP2
T1 sequence (P08253 110-660): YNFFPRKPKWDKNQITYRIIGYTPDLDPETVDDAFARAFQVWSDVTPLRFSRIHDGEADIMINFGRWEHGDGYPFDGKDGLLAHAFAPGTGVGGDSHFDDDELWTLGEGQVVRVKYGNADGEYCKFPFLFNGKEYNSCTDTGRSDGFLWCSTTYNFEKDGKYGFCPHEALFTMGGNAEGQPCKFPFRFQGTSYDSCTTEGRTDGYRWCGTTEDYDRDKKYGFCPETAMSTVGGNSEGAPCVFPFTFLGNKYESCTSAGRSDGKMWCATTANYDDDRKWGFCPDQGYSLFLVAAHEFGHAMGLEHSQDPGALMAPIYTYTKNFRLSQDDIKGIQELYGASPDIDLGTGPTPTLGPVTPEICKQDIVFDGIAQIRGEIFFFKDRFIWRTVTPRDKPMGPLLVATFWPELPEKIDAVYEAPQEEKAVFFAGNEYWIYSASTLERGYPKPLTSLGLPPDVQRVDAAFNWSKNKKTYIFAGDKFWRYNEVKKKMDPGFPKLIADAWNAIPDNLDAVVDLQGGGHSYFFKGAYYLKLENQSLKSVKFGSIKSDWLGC

[2] = target: T2, MMP-1 (interstitial collagenase) (Homo sapiens, UniProt P03956); test: thiopeptolide substrate hydrolysis assay, MMP-1; format: biochemical; conditions: inhibition of hydrolytic activity of the enzyme, read-out: IC50 MMP1
T2 sequence (P03956 100-469): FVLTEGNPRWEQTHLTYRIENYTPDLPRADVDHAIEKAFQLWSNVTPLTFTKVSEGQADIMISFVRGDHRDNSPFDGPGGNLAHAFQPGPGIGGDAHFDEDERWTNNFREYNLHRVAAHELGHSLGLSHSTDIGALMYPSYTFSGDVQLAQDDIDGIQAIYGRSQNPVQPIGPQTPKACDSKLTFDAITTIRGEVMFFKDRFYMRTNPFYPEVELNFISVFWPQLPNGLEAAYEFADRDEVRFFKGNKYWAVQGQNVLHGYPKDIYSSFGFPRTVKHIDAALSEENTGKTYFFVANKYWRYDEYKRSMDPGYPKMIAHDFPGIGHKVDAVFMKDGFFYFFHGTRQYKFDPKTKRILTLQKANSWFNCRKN

Row | pIC50 [1] | SMILES | pIC50 [2]
1 | 7.36 | CC(C)[C@H](NS(=O)(=O)c1ccc(-c2ccc(N)cc2)cc1)C(=O)O [(S)-2-(4′-Amino-biphenyl-4-sulfonylamino)-3-methyl-butyric acid] | –
2 | 7.60 | CC(C)[C@H](NS(=O)(=O)c1ccc(-c2ccc(Br)cc2)cc1)C(=O)O [(S)-2-(4′-Bromo-biphenyl-4-sulfonylamino)-3-methyl-butyric acid] | –
3 | – | COc1ccc(S(=O)(=O)N(Cc2cccnc2)[C@@H](C(=O)NO)C(C)C)cc1 [CGS 27023A] | 7.48

Row | SMILES | pIC50 [1] | pIC50 [2]
4 | CC(C)[C@H](NS(=O)(=O)c1ccc(-c2ccc([N+](=O)[O-])cc2)cc1)C(=O)O [(S)-3-Methyl-2-(4′-nitro-biphenyl-4-sulfonylamino)-butyric acid] | 7.89 | –
